The numbers were not newly measured in US10294273B2, “Macrocyclic peptidomimetics for alpha-helix mimicry” (UNIVERSITY OF ROCHESTER, priority 2014, dated 2019), which cites them from elsewhere.

For this data set the following is noted: Pazgier, Liu et al. 2009; cited from earlier work.

For “linear 12-mer peptide TSFAEYWNLLSP (SEQ ID NO: 2) isolated via phage display by Pazgier et al. (Engineered sequence) [PMI]”, the “efficacy in cell-based assays” value was “ineffective”.
